The list shows a part of the results.
T1: LIN28A (human?, UniProt Q9H9Z2 1-209)
T1 sequence: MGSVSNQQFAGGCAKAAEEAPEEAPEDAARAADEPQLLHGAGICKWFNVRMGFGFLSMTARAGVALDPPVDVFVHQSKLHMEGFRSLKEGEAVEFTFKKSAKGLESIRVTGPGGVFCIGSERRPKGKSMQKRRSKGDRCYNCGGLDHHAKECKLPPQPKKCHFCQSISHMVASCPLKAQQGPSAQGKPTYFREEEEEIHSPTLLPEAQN

T2: CIRBP (Homo sapiens, UniProt Q14011 1-172)
T2 sequence: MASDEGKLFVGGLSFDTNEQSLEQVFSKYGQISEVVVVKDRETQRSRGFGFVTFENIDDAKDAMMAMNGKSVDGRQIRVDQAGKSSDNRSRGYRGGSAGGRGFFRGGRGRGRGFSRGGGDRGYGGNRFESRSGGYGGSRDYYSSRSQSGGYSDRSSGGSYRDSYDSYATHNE

T3: DHX36 (Homo sapiens, UniProt Q9H2U1 1-1008)
T3 sequence: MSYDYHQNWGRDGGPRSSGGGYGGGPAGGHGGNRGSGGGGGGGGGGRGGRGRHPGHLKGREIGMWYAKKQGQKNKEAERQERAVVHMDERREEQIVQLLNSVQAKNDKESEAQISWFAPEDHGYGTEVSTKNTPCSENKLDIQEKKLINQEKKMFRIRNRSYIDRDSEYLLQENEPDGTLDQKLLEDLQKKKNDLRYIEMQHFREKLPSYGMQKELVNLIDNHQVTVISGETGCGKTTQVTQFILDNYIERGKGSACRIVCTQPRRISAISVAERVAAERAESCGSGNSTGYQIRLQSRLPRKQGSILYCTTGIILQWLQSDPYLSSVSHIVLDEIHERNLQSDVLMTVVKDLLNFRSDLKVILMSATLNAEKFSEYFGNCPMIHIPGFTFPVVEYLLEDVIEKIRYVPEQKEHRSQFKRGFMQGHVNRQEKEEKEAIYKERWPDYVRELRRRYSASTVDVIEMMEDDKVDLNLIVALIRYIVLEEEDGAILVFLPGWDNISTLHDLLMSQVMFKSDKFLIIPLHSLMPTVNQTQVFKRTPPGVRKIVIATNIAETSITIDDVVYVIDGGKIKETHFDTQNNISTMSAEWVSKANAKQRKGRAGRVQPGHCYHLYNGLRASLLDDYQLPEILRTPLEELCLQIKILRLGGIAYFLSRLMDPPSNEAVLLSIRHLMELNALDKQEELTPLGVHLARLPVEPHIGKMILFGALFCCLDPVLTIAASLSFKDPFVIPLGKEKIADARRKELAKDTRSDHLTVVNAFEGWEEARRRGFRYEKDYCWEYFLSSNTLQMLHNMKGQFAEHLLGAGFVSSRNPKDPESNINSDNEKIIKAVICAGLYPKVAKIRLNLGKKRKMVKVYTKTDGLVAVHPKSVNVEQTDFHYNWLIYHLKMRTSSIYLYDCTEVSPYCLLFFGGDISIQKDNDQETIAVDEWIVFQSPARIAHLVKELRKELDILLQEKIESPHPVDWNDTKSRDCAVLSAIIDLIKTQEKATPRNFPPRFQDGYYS

B1: hsa-mir-578 (structured_RNA)
RNA: GGGAGAAUAAUUCAGUCCGGCAAGGGCAGGUGUACGAAGUUUCAGCGAAGCUCCUAUAGCUCCUGUAGCUUCGCUGAAGCUUCGUGCAC
B2: hsa-mir-676 (structured_RNA)
RNA: GGGAAACCACCUAGGUCCACAUGCAUACGGUGUACGAAGUUUCAGCCUUGCAGAAUUAAUGGAAUGCUGGCUGAAGCUUCGUGCAC
B3: hsa-mir-8074 (structured_RNA)
RNA: GGGAAGGGCCCAUCCUUCUACACUUGAGGGUGUACGAAGUUUCAGCAUGGGAGCCCAGAGACGUCCUAUGCUGAAGCUUCGUGCAC
B4: hsa-mir-548an (structured_RNA)
RNA: GGGAAACUUUAUUAAACCUUACCGGGCCGGUGUACGAAGUUUCAGCUUUGCCUAUAAAAGUAAUGGCAAAGCUGAAGCUUCGUGCAC
B5: hsa-mir-4681 (structured_RNA)
RNA: GGGACAGUUACGUAAUUGGCUCUUUGGUGGUGUACGAAGUUUCAGCAUCUGCAGGGCAUUGUGCUAACAGGUGCUGAAGCUUCGUGCAC
B6: hsa-mir-504 (structured_RNA)
RNA: GGGAAAGCAUGGGUCGGAGGUUGGACAAGGUGUACGAAGUUUCAGCUCUAUCUGUAUUCUUACUGAAGGGAGCUGAAGCUUCGUGCAC
B7: hsa-mir-423 (structured_RNA)
RNA: GGGAAAUACGGGUUGACUGUUUUGUUGCGGUGUACGAAGUUUCAGCGACUUUUCUAUUUUCCAAAAGCGCUGAAGCUUCGUGCAC
B8: hsa-mir-934 (structured_RNA)
RNA: GGGAACAUGCGCCGUGGGUCUAUAGUUAGGUGUACGAAGUUUCAGCCUGGUAGUAUAAAACCCAGGCUGAAGCUUCGUGCAC
B9: hsa-mir-4513 (structured_RNA)
RNA: GGGACAUUUUGAGACUGGCCGGGAGUUGGGUGUACGAAGUUUCAGCCCAUAAGCUGUCUAAAACUUCGGCUGAAGCUUCGUGCAC
B10: hsa-mir-6860 (structured_RNA)
RNA: GGGACACGCUAUACCAACACUCUCCGUAGGUGUACGAAGUUUCAGCGAGUUUGGAGUCGGUGGGUGGAGCCAAACUGGCUGAAGCUUCGUGCAC
B11: hsa-mir-759 (structured_RNA)
RNA: GGGAACGGGUUACGUUGAAAUUCCGACGGGUGUACGAAGUUUCAGCUGACUCAGAUCUGCUGAAGCUUCGUGCAC
B12: hsa-mir-3921 (structured_RNA)
RNA: GGGAACAUCGACUGGGCUAGCAGAUAUCGGUGUACGAAGUUUCAGCGAGACUUAGAAAUCCCUAAGUCUCGCUGAAGCUUCGUGCAC
B13: hsa-mir-3186 (structured_RNA)
RNA: GGGAGCAAAAGAAGCGCCUACCUGUUGAGGUGUACGAAGUUUCAGCGUGGCUUCAACCAAGUUCAAAGUCACGCUGAAGCUUCGUGCAC
B14: hsa-mir-496 (structured_RNA)
RNA: GGGAAUGGGGCGCUCCCCUCAAUAGUUGGGUGUACGAAGUUUCAGCUUCAUUUUAUUUAUGAUGAGGCUGAAGCUUCGUGCAC
B15: hsa-mir-299 (structured_RNA)
RNA: GGGAAAUGGCCAUUGACCCUGAAGUAAAGGUGUACGAAGUUUCAGCCAUACAUUUUGAAUAUGUAUGGCUGAAGCUUCGUGCAC
B16: hsa-mir-3671 (structured_RNA)
RNA: GGGACAGUUAGGGUUCGAAAGCAAGCACGGUGUACGAAGUUUCAGCACAUGAAAAUAAAAUGUAAAUUAUUUUAUUUCUAUCAGCUGAAGCUUCGUGCAC
B17: hsa-mir-4788 (structured_RNA)
RNA: GGGAAGUUAGGCCCAAUAGGCUCAGAGGGGUGUACGAAGUUUCAGCAGGCAUUAGGAUCCUUAUUCUUGCCUGCUGAAGCUUCGUGCAC
B18: NEAT1_ParasoR_ID22 (structured_RNA)
RNA: GGGAAUGCAGGCUUUAGUCGCAGACUACGGUGUACGAAGUUUCAGCUAAGUGUAAUCAUACAGUAUUUGUCUUUUUGGGUCUGUCUGAUUUCACUUAGCUGAAGCUUCGUGCAC
B19: hsa-mir-4772 (structured_RNA)
RNA: GGGAACCCUUAUUGGAGGCAUACUCCGAGGUGUACGAAGUUUCAGCCAGACUGUCUUCCCAAAUAGCCUGGCUGAAGCUUCGUGCAC
B20: hsa-mir-581 (structured_RNA)
RNA: GGGAAGGGACUCAUAUAUUUGCAGCACAGGUGUACGAAGUUUCAGCCAGUGCUUUUAGAAAAUUUGUGUGGCUGAAGCUUCGUGCAC
B21: hsa-mir-22 (structured_RNA)
RNA: GGGAAAGGCGAAGUGAAACAGUAUGAAUGGUGUACGAAGUUUCAGCGCUUUAUGUCCUGACCCAGCUAAAGCGCUGAAGCUUCGUGCAC
B22: hsa-mir-511 (structured_RNA)
RNA: GGGCAAGGCAAUGGGGCAACCAGUAAUAGGUGUACGAAGUUUCAGCCAGUCAGUAAAUAUUUUUUUGUGAAUGGCUGAAGCUUCGUGCAC
B23: hsa-mir-4429 (structured_RNA)
RNA: GGGCAGCCGCACAGCGUAUACAAGGAUCGGUGUACGAAGUUUCAGCGGCGACUGGUGUCUAAUUUGUUUGUCGCUGAAGCUUCGUGCAC
B24: hsa-mir-6088 (structured_RNA)
RNA: GGGAAACUGAAAAUGGGAAACAAGGUUUGGUGUACGAAGUUUCAGCGGGGUCUUGCUCUAUUGCUGAAGCUUCGUGCAC
B25: hsa-mir-6805 (structured_RNA)
RNA: GGGACUCUGGUCCAAGAUUAUCCCUUCUGGUGUACGAAGUUUCAGCGUGUAUGGGCUGAGCCUUGCGCUGAAGCUUCGUGCAC
B26: hsa-mir-5093 (structured_RNA)
RNA: GGGAAAGCGAGCCAUUUCUAUCCGUGAAGGUGUACGAAGUUUCAGCUCCUGAGCUAGGAGGAUUAGGAGCUGAAGCUUCGUGCAC

Experiments:
Assay in all cases: FOREST: bead pull-down of RNA structure library v1, barcode microarray; U1A/LIN28A: 20 mM HEPES pH 7.5, 80 mM KCl, 20 mM NaCl, 10% glycerol, 2 mM DTT, 0.1 ug/uL BSA, 4 C; BG4/CIRBP/DHX36: 10 mM Tris-HCl pH 7.5, 100 mM KCl (or LiCl),; high values mean tight binding
[1] = target: T1, LIN28A
[2] = target: T2, CIRBP
[3] = target: T3, DHX36

Binder | binding signal [1] | binding signal [2] | binding signal [3]
B1 | -0.112 z-score | 0.607 z-score | 0.639 z-score
B2 | -0.113 z-score | 0.447 z-score | -0.491 z-score
B3 | -0.114 z-score | -1.35 z-score | -0.626 z-score
B4 | -0.114 z-score | -1.4 z-score | -0.308 z-score
B5 | -0.114 z-score | -0.599 z-score | -0.527 z-score
B6 | -0.12 z-score | -0.717 z-score | 0.467 z-score
B7 | -0.127 z-score | 0.873 z-score | -0.603 z-score
B8 | -0.128 z-score | 0.204 z-score | -0.648 z-score
B9 | -0.129 z-score | 0.0114 z-score | 0.304 z-score
B10 | -0.13 z-score | -0.454 z-score | 2.41 z-score
B11 | -0.131 z-score | 0.00142 z-score | -1.08 z-score
B12 | -0.131 z-score | 0.673 z-score | -0.425 z-score
B13 | -0.133 z-score | 0.297 z-score | -0.0288 z-score
B14 | -0.133 z-score | -0.016 z-score | 0.0363 z-score
B15 | -0.134 z-score | 1.53 z-score | -0.224 z-score
B16 | -0.141 z-score | 0.268 z-score | -1.25 z-score
B17 | -0.149 z-score | 0.964 z-score | -0.261 z-score
B18 | -0.153 z-score | 0.543 z-score | -1.02 z-score
B19 | -0.157 z-score | 0.613 z-score | -0.217 z-score
B20 | -0.162 z-score | 0.382 z-score | -0.586 z-score
B21 | -0.164 z-score | -0.257 z-score | -0.525 z-score
B22 | -0.168 z-score | -0.00349 z-score | -0.0418 z-score
B23 | -0.171 z-score | -0.226 z-score | 0.44 z-score
B24 | -0.171 z-score | -0.041 z-score | -0.154 z-score
B25 | -0.171 z-score | 0.438 z-score | 0.0347 z-score
B26 | -0.173 z-score | 0.145 z-score | -0.725 z-score

Reference: paper PMC7723054
